Assay results as given in patent US11246865B2 (priority 2017, dated 2022).

Tests used:
[1] = Respiratory depression (increased PaCO2) in rats
[2] = Rat tail-pinch model, antinociceptive activity; type: in vivo; details: rats

Substance: (+)-3-((alpha-R)-alpha-((2S,5R)-4-allyl-2,5-dimethyl-1-piperazinyl)-3-hydroxybenzyl)-N-(3-fluorophenyl)-N-methylbenzamide
- Respiratory Depression ED50 ([1]; rats, increased PaCO2): 0.91 mg/kg
- Therapeutic Ratio ([1]; respiratory depression ED50 versus analgesic ED50): 18.2
- Analgesic ED50 Tail Pinch [2]: 0.050 mg/kg
